The values below come from PubChem BioAssay AID796 (Columbia University Molecular Screening Center, 2007).

The list shows a part of the results, in another mix than the full data. Activity calls are given as the source filed them.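 The calls were made as follows: active = inhibition above about 30% together with a positive call from visual inspection of the well image (limit read from the data); inconclusive = inhibition above a set limit but visual check negative; inactive = inhibition not above a set limit, visual check negative.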

This assay in a line: inhibitors of IL-1B driven NFkB p65 nuclear import, primary screen, imaging, HUVEC, IL-1B stimulus, high-content imaging (AID 796).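 Also: nuclear over cytoplasmic p65 intensity ratio measured by imaging; 0% = IL-1B stimulated DMSO wells and 100% = unstimulated DMSO wells.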 The note with it: HUVEC IL-1B NFkB p65 nuclear translocation imaging; at 2 µM; hits give high values.
What is called inhibition is the relative decrease from the control value, in per cent. Turning to `CCOP(C)(=S)SCC(=O)NC(C)(CC)C(=O)O` (stereo unspecified), the inhibition was inactive: 0.3%.

Take `c1nnnn1CCn1cnnn1`: the inhibition is inactive: 4.7%.

For the compound `O=P(Nc1nccs1)(c1ccccc1)c1ccccc1`, the inhibition was inactive: -6.8%.

As for `CP(=O)(Nc1ccc2c(c1)OCCO2)Oc1ccccc1` (stereo unspecified), the inhibition was inactive: -33.2%.

Regarding `CN(C)CCOC(=O)C(O)(c1ccccc1)C1CCCCC1` (stereo unspecified), the inhibition is inactive: 1%.

For `O=C(OC1CN2CCC1CC2)c1cccc(Cl)c1` (stereo unspecified), the inhibition is inactive: 11.7%.

Turning to `CCOC(=O)NC(Sc1ccccc1)C(Cl)(Cl)Cl` (stereo unspecified), the inhibition is inactive: 10.2%.

Consider `CP(=O)(Nc1ccccc1)Oc1ccc(F)cc1` (stereo unspecified), for which the inhibition is inactive: -17.6%.

As to `COC(=O)c1cc2c(s1)N=C(c1ccccc1)N(C)P2(=O)N1CCOCC1` (stereo unspecified), the inhibition was inactive: 7.3%.

For the compound `CCN(CC)CCCOC(=O)C(O)(c1ccccc1)C1CCCCC1` (stereo unspecified), the inhibition is inactive: -10.1%.

`CCC(=O)N1C2C3N(C(=O)CC)C1C1N(C(=O)CC)C(C(N1C(=O)CC)N3C(=O)CC)N2C(=O)CC`: the inhibition was inactive: -22.5%.

For `CP(=O)(Nc1ccccc1F)Oc1ccccc1` (stereo unspecified), the inhibition is inactive: 9.7%.

In the case of `O=P1(Nc2nc3ccc(Cl)cc3s2)COc2ccccc2O1` (stereo unspecified), the inhibition is inactive: -17.7%.

Consider `COc1ccc(OP(C)(=O)Nc2ccccn2)cc1` (stereo unspecified), for which the inhibition was inactive: -15.8%.

On to `CN(C)CCOC(=O)C(O)(c1ccccc1)C1CCCC1` (stereo unspecified), for which the inhibition was inactive: -5.9%.

`CN1CCCC(OC(=O)C(c2ccccc2)c2ccccc2)C1` (stereo unspecified): the inhibition is inactive: 7.8%.

`COc1ccccc1OP(C)(=O)Nc1ccc(C)cc1C` (stereo unspecified): the inhibition is inactive: 2.5%.

With `CP(=O)(Nc1ccccn1)Oc1ccccc1` (stereo unspecified), the inhibition was inactive: -2.8%.

For `CCc1ccc(OP(C)(=O)O)cc1`, the inhibition was inactive: -1%.

For `CC(C)CC(=O)NC(Sc1ccc(Cl)cc1)C(Cl)(Cl)Cl` (stereo unspecified), the inhibition is inactive: -4.3%.

Regarding `Cc1c(NP(C)(=O)Oc2ccc(C(C)C)cc2)c(=O)n(-c2ccccc2)n1C` (stereo unspecified), the inhibition is inactive: 3.6%.

Consider `Cc1c2non([O-])c-2c(C)[n+](=O)[n+]1[O-]`, for which the inhibition is inactive: -16.9%.

With `Oc1ccccc1CNc1ccccn1`, the inhibition is inactive: -8.9%.

Take `COc1ccccc1OP(C)(=O)Nc1ccc(C)c(C)c1` (stereo unspecified): the inhibition is inactive: -2%.

Consider `CCOP(=O)(Nc1ccccc1)OCC`, for which the inhibition is inactive: -3.6%.

On to `Cc1nc2ccc3ccccc3c2o1.O=[N+]([O-])c1cc([N+](=O)[O-])c(O)c([N+](=O)[O-])c1`, for which the inhibition was inactive: -41.7%.

For the compound `CP(=O)(OC12CC3CC(CC(C3)C1)C2)OC12CC3CC(CC(C3)C1)C2`, the inhibition was inactive: -20.3%.

Take `COc1ccccc1OP(C)(=O)Nc1c(C)n(C)n(-c2ccccc2)c1=O` (stereo unspecified): the inhibition was inactive: -23.1%.

Turning to `O=[N+]([O-])c1cccc2n[nH]nc12`, the inhibition is inactive: 0.3%.

On to `CC(=O)N1C2C3N(C(C)=O)C1C1N(C(C)=O)C(C(N1C(C)=O)N3C(C)=O)N2C(C)=O`, for which the inhibition is inactive: 0.5%.

Regarding `CCc1nc2c(n1)c1c(non1O)c1c2no[n+]1[O-]`, the inhibition is inactive: -13.3%.

For `CP(=O)(Oc1ccccc1)N1CCOC1=O` (stereo unspecified), the inhibition was inactive: 6.3%.

`CCN(CC)CC(O)COC(=O)C(O)(c1ccccc1)C1CCCCC1` (stereo unspecified): the inhibition is inactive: 1.4%.

As to `CC1CCN(C(=O)Oc2c(Cl)cc(Cl)c3cccnc23)CC1`, the inhibition is inactive: -3.5%.

`CC(C)(C)c1ccc(OP(C)(=O)O)cc1`: the inhibition is inactive: -3.7%.

Turning to `CP(=O)(Nc1ccc(Cl)cc1)Oc1ccc(F)cc1` (stereo unspecified), the inhibition is inactive: -20.9%.

As for `O=C(COc1ccccc1)OC1CN2CCC1CC2` (stereo unspecified), the inhibition was inactive: 7.2%.

With `CP(=O)(NC(=O)Nc1ccccc1)Oc1ccccc1` (stereo unspecified), the inhibition is inactive: -2.7%.

With `COP1(=S)c2c(C)nn(CCC#N)c2N=C(c2ccc(F)cc2)N1C` (stereo unspecified), the inhibition was inactive: 5.2%.

For `CP(=O)(Nc1ccccn1)Oc1ccc(Cl)cc1` (stereo unspecified), the inhibition is inactive: -4.3%.

`CCC(C)N(CC(C)C)C(=S)SC(NC(C)=O)C(Cl)(Cl)Cl` (stereo unspecified): the inhibition was inactive: -4.9%.

Consider `CP(=S)(Nn1cnnc1)Oc1ccccc1` (stereo unspecified), for which the inhibition was inactive: -8.1%.

With `COc1ccc(OP(C)(=O)Nc2cccc(F)c2)cc1` (stereo unspecified), the inhibition was inactive: -10.8%.

On to `CCN(CC)C(=S)SC(NC=O)C(Cl)(Cl)Cl` (stereo unspecified), for which the inhibition is inactive: 0.6%.

For `ClCCSc1nnc(-c2cccnc2)o1`, the inhibition is inactive: 10.5%.

Regarding `O=C(OC1CN2CCC1CC2)C12CC3CC(CC(C3)C1)C2` (stereo unspecified), the inhibition was inactive: -19.3%.

As for `Cc1cccc(OCC(=O)OC2CN3CCC2CC3)c1` (stereo unspecified), the inhibition is inactive: -22.3%.

Take `Cc1ccc(C)c(NP(C)(=O)Oc2ccccc2)c1` (stereo unspecified): the inhibition is inactive: -18%.

`Cc1cc(C)cc(OP(C)(=O)Nc2ccccn2)c1` (stereo unspecified): the inhibition is inactive: 22.4%.

`CCOP1(=S)c2c(C)nn(CCC#N)c2N=C(c2ccccc2F)N1C` (stereo unspecified): the inhibition is inactive: -2.5%.

`O=[N+]([O-])c1ccc2c(c1)nnn2O`: the inhibition is inactive: -0.2%.

As to `CCOP1(=S)c2c(C)nn(CCC#N)c2N=C(c2ccc(F)cc2)N1C` (stereo unspecified), the inhibition is inactive: -1%.

For `Cc1nn(-c2ccccc2)c2c1P(=O)(N1CCOCC1)N(C)C(c1ccccc1)=N2` (stereo unspecified), the inhibition was inactive: -17.8%.

On to `O=P1(Nc2ccc(Br)cn2)COc2ccccc2OC1`, for which the inhibition was inactive: -3.5%.

For `Cc1ccc(OCC(=O)OC2CN3CCC2CC3)cc1` (stereo unspecified), the inhibition was inactive: -1.4%.

In the case of `O=P1(Nc2ncccn2)COc2ccccc2OC1`, the inhibition was inactive: -5.5%.

On to `COc1ccccc1OP(C)(=O)Nc1c(C)cccc1C` (stereo unspecified), for which the inhibition is inactive: 1.3%.

For the compound `Clc1n[nH]nc1-c1nn[nH][15n]1`, the inhibition is inactive: 0.8%.

With `O=P1(Nc2ccccn2)COc2ccccc2OC1`, the inhibition was inactive: -15.9%.

On to `Cc1nc2ccc3ccccc3c2s1.O=[N+]([O-])c1cc([N+](=O)[O-])c(O)c([N+](=O)[O-])c1`, for which the inhibition is inactive: 4.3%.

For the compound `CC1(CBr)Cn2c(nc3ccccc3c2=O)S1` (stereo unspecified), the inhibition was inactive: 7.5%.
